Test results as given in IntAct's records for PubMed 32073997.

B1: AKT-interacting protein (Homo sapiens), Q9H8T0 (parent)
chain: MNPFWSMSTSSVRKRSEGEEKTLTGDVKTSPPRTAPKKQLPSIPKNALPITKPTSPAPAAQSTNGTHASYGPFYLEYSLLAEFTLVVKQKLPGVYVQPSYRSALMWFGVIFIRHGLYQDGVFKFTVYIPDNYPDGDCPRLVFDIPVFHPLVDPTSGELDVKRAFAKWRRNHNHIWQVLMYARRVFYKIDTASPLNPEAAVLYEKDIQLFKSKVVDSVKVCTARLFDQPKIEDPYAISFSPWNPSVHDEAREKMLTQKKPEEQHNKSVHVAGLSWVKPGSVQPFSKEEKTVAT

Variants of: B1
Conditions: with hook1_human HOOK1, Q9UJC3

Row | effect of a mutation on the interaction | Variant
1 | disrupting interaction strength | W106A;F107A
